In US20090304689A1, “METHODS FOR THE IDENTIFICATION OF POLYPEPTIDE ANTIGENS ASSOCIATED WITH DISORDERS INVOLVING ABERRANT CELL PROLIFERATION AND COMPOSITIONS USEFUL FOR THE TREATMENT OF SUCH DISORDERS” (priority 2001, published 2009):

What was measured:
[1] = test system: SK-BR-3 breast tumor cells; test: Cell proliferation of normally growing SK-BR-3 cells, 10% FBS (FIG. 6A); format: cell-based, human; conditions: SK-BR-3 in 10% FBS, 3 days
cynomolgus monkeys = test: Four-week intravenous toxicity study in female cynomolgus monkeys; format: in vivo, cynomolgus monkeys (Macaca fascicularis); conditions: 2, 10 or 30 mg/kg i.v. once weekly for 4 weeks
Procedure: HERCEPTIN®-DM1 was administered to young adult female cynomolgus monkeys (Macaca fascicularis; Primate Products, Inc., Miami Fla.) once weekly for four weeks. The average weight of the monkeys was three kilograms (range from 2.7 to 3.4 kilograms). A total of eight monkeys, divided into four groups of two monkeys each, were utilized for the study. The dosages of HERCEPTIN®-DM 1 tested were 2, 10 and 30 mg/kg. A control group received vehicle only (an aqueous buffer (pH 5.0) containing sodium succinate (10 mM), sucrose (100 mg/ml) and TWEEN™ 20 (0.1%)) at the same dose volume as administered to the treated animals. The monkeys were analyzed for various toxicities, including, but not limited to, neurotoxicity and cardiotoxicity. […]
The test and control articles were administered over a 30 to 60 second time period by intravenous injection into an indwelling catheter inserted into the saphenous or cephalic vein, using a stainless steel dosing needle and syringe of appropriate size. […] Doses were calculated using the most recent body weights available. […]
Physical observations were performed twice pretest and once weekly during the study period. Body weights were recorded twice pretest, weekly during the study period and prior to termination. […]
After four weeks of treatment, all survivors were sacrificed. […] Cardiac and nerve tissues were collected from each animal and analyzed.

SK-BR3 cells = test: Anti-proliferative effect / cytotoxicity on SK-BR-3 breast tumor cells (crystal violet, FIG. 4); format: cell-based, human; conditions: SK-BR-3, 3 day incubation
Procedure: SK-BR3 cells, which express 3+level of HER2 on cell surface (about 2 million HER2 molecules/cell), were treated with HERCEPTIN®, HERCEPTIN®-DM1 conjugate, control mAb RITUXAN® or RITUXAN®-DM1 conjugates, and the effect of these treatments on cell proliferation was monitored. […] The RITUXAN®-DM1 conjugate required about 100 times higher concentration to achieve the same level of cell growth inhibition as HERCEPTIN®-DM1 conjugate.

## HERCEPTIN®: HERCEPTIN® (huMAb4D5-8, rhuMAb HER2, U.S. Pat. No. 5,821,337) antibody
[1]
  effect on cell proliferation: modest reduction
Cynomolgus monkeys
  cardiotoxicity (clinical evaluations, serum markers, heart light microscopy): no evidence of cardiotoxicity
SK-BR3 cells
  reduction in SK-BR-3 cell growth: 35%
